{"source": "patent US7312219B2", "about": "“Heteroaromatic inhibitors of fructose 1,6-bisphosphatase” (Metabasis Therapeutics, Inc., priority 1998, dated 2007)", "biological_target": "T1, human liver FBPase (Homo sapiens, UniProt P09467)", "T1 construct": "made in house; host or cells: E. coli BL21", "T1 sequence (P09467 2-338 limits assumed)": "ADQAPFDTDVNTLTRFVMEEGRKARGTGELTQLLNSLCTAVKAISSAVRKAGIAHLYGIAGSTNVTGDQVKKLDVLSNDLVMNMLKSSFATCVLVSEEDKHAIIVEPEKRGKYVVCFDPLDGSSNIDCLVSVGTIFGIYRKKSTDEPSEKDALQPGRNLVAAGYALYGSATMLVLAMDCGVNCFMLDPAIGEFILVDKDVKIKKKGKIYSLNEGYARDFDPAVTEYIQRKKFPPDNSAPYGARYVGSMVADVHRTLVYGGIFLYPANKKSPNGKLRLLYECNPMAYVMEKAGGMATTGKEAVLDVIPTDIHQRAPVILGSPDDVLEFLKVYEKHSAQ", "experiment": "Inhibition of Human Liver FBPase", "format": "biochemical", "conditions": "selectivity table; read-out: FBPase (inh.)"}
{"smiles": "CC(C)Cc1oc(N)nc1-c1ccc(P(=O)(O)O)o1", "note": "[Compound 10.1, 2-amino-5-isobutyl-4-[2-(5-phosphono)furanyl]oxazole]", "values": [{"measurement": "IC50", "value": 100, "unit": "nM"}]}
